Reference: patent US20230339891A1, “URACIL DERIVATIVES AS MER-AXL INHIBITORS” (BRISTOL-MYERS SQUIBB COMPANY, priority 2018, published 2023)

Amino acid sequences for entries named in this document (tags omitted). Residues count along the entry.
UniProt P30530, 473-894 limits assumed: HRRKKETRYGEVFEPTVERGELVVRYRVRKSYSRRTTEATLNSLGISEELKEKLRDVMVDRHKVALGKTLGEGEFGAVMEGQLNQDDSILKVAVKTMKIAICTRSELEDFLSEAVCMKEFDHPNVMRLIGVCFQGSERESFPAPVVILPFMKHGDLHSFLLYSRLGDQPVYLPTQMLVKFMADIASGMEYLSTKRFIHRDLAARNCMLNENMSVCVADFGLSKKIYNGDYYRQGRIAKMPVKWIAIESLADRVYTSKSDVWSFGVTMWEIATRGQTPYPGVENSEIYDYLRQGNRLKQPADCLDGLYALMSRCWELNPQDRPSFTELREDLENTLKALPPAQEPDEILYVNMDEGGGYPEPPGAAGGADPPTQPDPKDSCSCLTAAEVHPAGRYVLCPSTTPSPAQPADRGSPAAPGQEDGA
UniProt Q12866, 578-872 limits assumed: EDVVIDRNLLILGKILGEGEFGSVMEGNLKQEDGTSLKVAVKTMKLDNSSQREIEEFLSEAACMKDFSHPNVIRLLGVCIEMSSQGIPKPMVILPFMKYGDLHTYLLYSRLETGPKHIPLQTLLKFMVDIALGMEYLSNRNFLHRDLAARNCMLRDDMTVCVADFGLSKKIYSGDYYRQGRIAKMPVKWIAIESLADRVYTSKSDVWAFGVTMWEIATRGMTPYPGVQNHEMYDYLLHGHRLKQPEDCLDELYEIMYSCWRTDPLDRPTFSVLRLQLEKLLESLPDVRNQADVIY

What was measured:
[1] = target: HIS-AXL 473-End (Homo sapiens (Human), UniProt P30530); experiment: AXL kinase homogeneous time resolved fluorescence (HTRF) binding assay; settings: read-out: Axl HTRF IC50; 1 nM kinase, fluorescein-labeled kinase tracer at Kd, 60 minutes at room temperature
Experimental: (§1) MERTK, AXL, TYRO3 Kinase Homogeneous Time Resolved Fluorescence (HTRF) Assay
(§2) Binding assays contained 1 nM kinase (GST-MERTK 578-872, HIS-AXL 473-End, or GST-TYRO 451-890), 0.2 nM terbium labelled antibody (anti-GST or anti-HIS), fluorescein-labeled kinase tracer at its respective kinase Kd, and test compounds in assay buffer consisting of 20 mM Hepes pH 7.5, 10 mM MgCl2, 0.015% Brij-35, 2 mM DTT, and 50 μg/ml BSA. Assays were performed in black, flat-bottom, 1536-well plates. The reactions were incubated at room temperature for 60 minutes, following which the HTRF signals, ratio of fluorescence intensities at emission wavelengths for fluorescein acceptor (520 nm) and terbium donor (495 nm), the 520/495 ratio, were measured on the Envision Plate reader. Inhibition data were calculated from the 520/495 ratio generated by the no protein control reactions for 100% inhibition and vehicle-only reactions for 0% inhibition, and dose response curves generated to determine the concentration required for inhibiting 50% of the HTRF signal (IC50). Compounds were dissolved at 10 mM in dimethylsulfoxide (DMSO) and evaluated at eleven concentrations.

[2] = target: GST-MERTK 578-872 (Homo sapiens (Human), UniProt Q12866); experiment: MERTK kinase homogeneous time resolved fluorescence (HTRF) binding assay; settings: read-out: Mer HTRF IC50; 1 nM kinase, fluorescein-labeled kinase tracer at Kd, 60 minutes at room temperature
Experimental: as §1, §2

SMILES | IC50 [1] [nM] | IC50 [2] [nM]
CC(C)n1cc(C(=O)Nc2ccc(Oc3ccnc(Nc4ccc(C#N)c(N5CCN(S(C)(=O)=O)CC5)n4)c3)c(F)c2)c(=O)n(Cc2ccccc2)c1=O | 25 | 21
CC(C)n1cc(C(=O)Nc2ccc(Oc3ccnc(Nc4ccc(C#N)c(N5CCC(S(C)(=O)=O)CC5)n4)c3)c(F)c2)c(=O)n(Cc2ccccc2)c1=O |  | 2.9
CC(C)n1cc(C(=O)Nc2ccc(Oc3ccnc(Nc4ccc(S(=O)(=O)N(C)C)cn4)c3)c(F)c2)c(=O)n(CC2CC2)c1=O |  | 89
CC(C)n1cc(C(=O)Nc2ccc(Oc3ccnc(Nc4ccc(S(=O)(=O)N(C)C)cn4)c3)c(F)c2)c(=O)n(Cc2ccc(F)cc2)c1=O | 4170 | 794
CC(C)n1cc(C(=O)Nc2ccc(Oc3ccnc(Nc4ccc(C#N)c(N5CC[C@H](O)C5)n4)c3)c(F)c2)c(=O)n(CCc2ccccc2)c1=O | 52 | 22
CC(C)n1cc(C(=O)Nc2ccc(Oc3ccnc(Nc4ccc(S(=O)(=O)N(C)C)cn4)c3)c(F)c2)c(=O)n(-c2cccc(Cl)c2)c1=O | 87 | 71

More lines, in order of falling IC50 [2], values ahead:

IC50 [1] [nM] | IC50 [2] [nM] | SMILES
62 | 216 | CC(C)Cn1c(=O)c(C(=O)Nc2ccc(Oc3ccnc(Nc4ccc(S(=O)(=O)N(C)C)cn4)c3)c(F)c2)cn(C(C)C)c1=O
140 | 175 | CC(C)n1cc(C(=O)Nc2ccc(Oc3ccnc(Nc4ccc(S(=O)(=O)N(C)C)cn4)c3)c(F)c2)c(=O)n(C(C)C)c1=O
12 | 137 | CC(C)n1cc(C(=O)Nc2ccc(Oc3ccnc(Nc4ccc(S(=O)(=O)N(C)C)cn4)c3)c(F)c2)c(=O)n(CCC2CC2)c1=O
62 | 119 | COc1ccc(-n2c(=O)c(C(=O)Nc3ccc(Oc4ccnc(Nc5ccc(S(=O)(=O)N(C)C)cn5)c4)c(F)c3)cn(C(C)C)c2=O)cc1
995 | 114 | COc1ccccc1Cn1c(=O)c(C(=O)Nc2ccc(Oc3ccnc(Nc4ccc(S(=O)(=O)N(C)C)cn4)c3)c(F)c2)cn(C(C)C)c1=O
66 | 105 | CC(C)n1cc(C(=O)Nc2ccc(Oc3ccnc(Nc4ccc(C(F)(F)F)cn4)c3)c(F)c2)c(=O)n(-c2ccc(F)cc2)c1=O
3.4 | 13 | CC(C)n1cc(C(=O)Nc2ccc(Oc3ccnc(Nc4ccc(S(=O)(=O)N5CC(C)(O)C5)cn4)c3)c(F)c2)c(=O)n(-c2ccc(F)cc2)c1=O
5.2 | 8.6 | CC(C)n1cc(C(=O)Nc2ccc(Oc3ccnc(Nc4ccc(C#N)c(N5CCN(S(C)(=O)=O)CC5)n4)c3)c(F)c2)c(=O)n(Cc2ccc(F)cc2)c1=O
1.9 | 1.6 | CC(C)n1cc(C(=O)Nc2ccc(Oc3ccnc(Nc4ccc(S(=O)(=O)N(C)C)c(N5CCC(S(C)(=O)=O)CC5)n4)c3)c(F)c2)c(=O)n(-c2ccc(F)cc2)c1=O
